The values below come from US8053603B2, “Tetralone-based monoamine reuptake inhibitors” (Sunovion Pharmaceuticals Inc., priority 2006, dated 2011).

Protein sequences, listed by entry. Tags and fused reporters are not part of them.
UniProt P31645, whole entry: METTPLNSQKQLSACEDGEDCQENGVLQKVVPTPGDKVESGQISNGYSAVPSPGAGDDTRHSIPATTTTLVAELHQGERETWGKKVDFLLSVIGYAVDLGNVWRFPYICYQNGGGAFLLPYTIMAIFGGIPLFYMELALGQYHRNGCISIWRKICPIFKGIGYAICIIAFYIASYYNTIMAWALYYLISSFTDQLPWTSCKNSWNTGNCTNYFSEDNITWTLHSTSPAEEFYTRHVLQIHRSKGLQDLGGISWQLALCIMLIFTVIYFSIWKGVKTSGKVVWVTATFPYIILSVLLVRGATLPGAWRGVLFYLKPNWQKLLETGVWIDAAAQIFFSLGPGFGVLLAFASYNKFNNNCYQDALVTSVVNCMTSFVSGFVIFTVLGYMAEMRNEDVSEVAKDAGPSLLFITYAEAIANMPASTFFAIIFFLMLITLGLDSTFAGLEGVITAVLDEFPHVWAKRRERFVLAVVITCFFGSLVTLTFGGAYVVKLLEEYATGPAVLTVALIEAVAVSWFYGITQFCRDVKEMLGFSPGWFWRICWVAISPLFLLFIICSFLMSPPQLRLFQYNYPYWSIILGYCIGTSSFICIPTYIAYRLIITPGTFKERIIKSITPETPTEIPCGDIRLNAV
UniProt P23975, whole entry: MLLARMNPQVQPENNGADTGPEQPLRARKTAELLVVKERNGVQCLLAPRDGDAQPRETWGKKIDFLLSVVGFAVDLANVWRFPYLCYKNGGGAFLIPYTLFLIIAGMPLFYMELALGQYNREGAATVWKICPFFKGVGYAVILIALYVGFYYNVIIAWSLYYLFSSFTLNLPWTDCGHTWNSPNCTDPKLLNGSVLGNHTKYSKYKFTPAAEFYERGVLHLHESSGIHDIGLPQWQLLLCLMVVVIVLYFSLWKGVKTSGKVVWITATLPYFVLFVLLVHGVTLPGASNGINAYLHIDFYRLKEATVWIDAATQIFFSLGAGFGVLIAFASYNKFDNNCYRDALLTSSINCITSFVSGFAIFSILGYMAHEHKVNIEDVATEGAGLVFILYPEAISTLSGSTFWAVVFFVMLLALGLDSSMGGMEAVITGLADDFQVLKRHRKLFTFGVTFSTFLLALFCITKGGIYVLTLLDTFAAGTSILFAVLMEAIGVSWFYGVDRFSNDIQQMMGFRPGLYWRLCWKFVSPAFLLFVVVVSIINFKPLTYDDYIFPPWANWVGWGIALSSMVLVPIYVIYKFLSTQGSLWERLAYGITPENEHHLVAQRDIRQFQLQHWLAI

As usually defined, the IC50 is the concentration that gives 50% inhibition.

Experiment [1] addresses T1, recombinant human serotonin transporter (Homo sapiens, UniProt P31645).
T1 construct: expressed in transfected cells; host or cells: HEK-293
The experiment can be described thus: Serotonin functional uptake assay for human reuptake transporter. The class given is cell-based. To be noted: read-out: Human IC50 (nM) SERT.

For experiment [2], the target named is T2, recombinant human norepinephrine transporter (Homo sapiens, UniProt P23975).
T2 construct: expressed in transfected cells; host or cells: HEK293 or MDCK
The experiment can be described thus: Norepinephrine functional uptake assay for human reuptake transporter. The format is cell-based. Particulars: [3H]norepinephrine uptake, HEK293 or MDCK cells expressing human norepinephrine transporter; read-out: Human IC50 (nM) NET.

Where [3] appears, read: [3H]serotonin uptake, HEK-293 cells expressing human serotonin transporter.

Each structure is given as a SMILES string. Read-outs that look alike come from different tables or passages of the source.

For the molecule `CN(C)[C@H]1Cc2ccccc2[C@H](c2ccc(Cl)c(Cl)c2)C1` [Compound 8a, [4-(3,4-dichlorophenyl)-1,2,3,4-tetrahydro-naphthalen-2-yl]-dimethylamine], in experiment [1], the IC50 turned out to be 7 nM. For the molecule `NC[C@@H]1Cc2ccccc2[C@H](c2ccc(Cl)c(Cl)c2)C1` [Compound 14a, (4-(3,4-dichlorophenyl)-1,2,3,4-tetrahydronaphthalen-2-yl)methanamine], the IC50 in experiment [1] (setting [3]) was 2 nM. Consider `NCCC1Cc2ccccc2C(c2ccc(Cl)c(Cl)c2)C1` (single isomer, unassigned) [Compound 25a, 2-(1,3-cis)-1-(3,4-dichlorophenyl)-(1,2,3,4-tetrahydronaphthalen-3-yl)ethanamine], for which the IC50 in experiment [2] was determined as 26 nM. As to `CN[C@H]1Cc2ccccc2[C@H](c2ccc(Cl)c(Cl)c2)C1` [Compound 7a, 4-(3,4-dichlorophenyl)-N-methyl-1,2,3,4-tetrahydronaphthalen-2-amine], the IC50 in experiment [1] (setting [3]) is 6 nM. In the case of `N[C@H]1Cc2ccccc2[C@H](c2ccc(Cl)c(Cl)c2)C1` [Compound 6a, [4-(3,4-dichlorophenyl)-1,2,3,4-tetrahydro-naphthalen-2-yl]-amine], the IC50 in experiment [1] was 46 nM. Turning to `NCCC1Cc2ccccc2C(c2ccc(Cl)c(Cl)c2)C1` (single isomer, unassigned) [Compound 25b, 2-(1,3-cis)-1-(3,4-dichlorophenyl)-(1,2,3,4-tetrahydronaphthalen-3-yl)ethanamine], the IC50 in experiment [2] came to 158 nM. `CNC[C@H]1Cc2ccccc2[C@H](c2ccc(Cl)c(Cl)c2)C1` [Compound 15a, [4-(3,4-dichlorophenyl)-1,2,3,4-tetrahydro-naphthalen-2-ylmethyl]-methylamine]: the IC50 in experiment [1] (setting [3]) was found to be 9 nM.
